Results taken from patent publication US9217007B2, “Platinum anticancer agents” (priority 2011, dated 2015).

What was measured:
[1] = test system: HEK-hNET; test: Toxicity toward HEK cells stably transfected with Norepinephrine Transporter; format: cell-based, human; settings: selectivity HEK-EV vs HEK-hNET
Experimental: The term “resistance factor” is a measure of selectivity conferred upon the platinum-based compound by the inclusion of ligands that promote recognition by NET.
(§1) After overnight incubation, the platinum compound with or without an OCT inhibitor (disopyramide) was then be added to the culture medium to various concentrations. After exposure to the drug for 7 hours, the drug-containing medium was replaced with fresh, drug-free medium and the incubation was continued for 72 hours.

[2] = test system: HCT116 colon cancer cell line; test: Cytotoxicity in colon cancer cell line HCT116 with and without cimetidine; format: cell-based; settings: ratio of IC50 in presence and absence of cimetidine
Experimental: (§2) Platinum uptake and platinum-DNA adduct formation was then measured in these transfected cell lines. In some cases, chemical inhibitors of OCT1 were used. In general, we used disopyramide (150 μM). […] In some cases, cimetidine (3 mM) was used as a general OCT inhibitor. Cytotoxicity of some of the leads was determined in colon cancer cell lines. Described below in some detail are the methods for these studies.
(§3) HEK293 cell lines, stably expressing hOCT1, hOCT2 and hOCT3. The following colon cancer cell lines were also used: HCT116, RKO, DLD, HT29 and SW620 purchased from American Type Tissue Culture collection.
as §1

[3] = test system: RKO colon cancer cell line; test: Cytotoxicity in colon cancer cell line RKO with and without cimetidine; format: cell-based; settings: RK0; ratio of IC50 in presence and absence of cimetidine
Experimental: as §2, §3, §1

[4] = test system: DLD colon cancer cell line; test: Cytotoxicity in colon cancer cell line DLD with and without cimetidine; format: cell-based; settings: ratio of IC50 in presence and absence of cimetidine
Experimental: as §2, §3, §1

[5] = test system: HT29 colon cancer cell line; test: Cytotoxicity in colon cancer cell line HT29 with and without cimetidine; format: cell-based; settings: ratio of IC50 in presence and absence of cimetidine
Experimental: as §2, §3, §1

[6] = test system: SW620 colon cancer cell line; test: Cytotoxicity in colon cancer cell line SW620 with and without cimetidine; format: cell-based; settings: ratio of IC50 in presence and absence of cimetidine
Experimental: as §2, §3, §1

O=C1[O][Pt]2([NH][C@@H]3CCCC[C@H]3[NH]2)[O]C1=O [Oxaliplatin, reference compound]
Resistance Factor [1]: 1.7 | Resistance Factor [2]: 10.8 | Resistance Factor [3]: 14.3 | Resistance Factor [4]: 7.02 | Resistance Factor [5]: 4.63 | Resistance Factor [6]: 5.71
